{"sequences": {"note": "Amino acid sequences for entries named in this document (tags omitted).", "UniProt P47898, whole entry, looked up": "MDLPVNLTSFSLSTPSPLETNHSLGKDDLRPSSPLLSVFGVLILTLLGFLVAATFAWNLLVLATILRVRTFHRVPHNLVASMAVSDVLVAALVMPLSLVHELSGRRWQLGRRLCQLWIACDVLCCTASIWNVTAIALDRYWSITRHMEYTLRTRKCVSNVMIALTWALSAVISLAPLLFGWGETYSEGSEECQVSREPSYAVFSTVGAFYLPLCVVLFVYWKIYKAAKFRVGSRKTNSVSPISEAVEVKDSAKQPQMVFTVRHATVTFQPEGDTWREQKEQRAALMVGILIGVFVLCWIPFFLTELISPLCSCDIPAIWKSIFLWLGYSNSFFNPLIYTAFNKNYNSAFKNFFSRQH"}, "source": "PubChem BioAssay AID504634", "about": "(The Scripps Research Institute Molecular Screening Center, 2011)", "note": "Only a part is listed here, and it is no random draw. Calls of active or inactive are those of the source. Cut-off read from the data, not from the text of the source: active = inhibition mostly above about 23% (no sharp cut-off); inactive = mostly below about 18%.", "data": [{"molecular_target": "5-hydroxytryptamine receptor 5A (Homo sapiens) (UniProt P47898)", "assay": "inverse agonism at human 5-HT5A receptor – cell-based, luminescence, full-deck HTS, counter-screen for OPRM1-OPRD1 heterodimer inverse agonist project, primary screen (AID 504634);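 note: 0% = cells with DMSO and 100% = no-cell wells with DMSO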", "conditions": "HTR5A cell line, at 9.3 µM, hits give high values", "values": [{"smiles": "Cc1ccc2c(c1)C1CN(C)CCC1N2C(=S)Nc1ccc(Cl)cc1Cl", "note": "(configuration not stated)", "inhibition": "inactive: 20.5%"}, {"smiles": "CSc1nc(N)nc2c1ncn2CC(=O)NCCCN1CCCC1=O", "inhibition": "inactive: -10.8%"}, {"smiles": "Cn1c(=O)c2c(nc(NCc3ccccc3)n2CC(N)=O)n(C)c1=O", "inhibition": "inactive: 13.2%"}, {"smiles": "C=CCSc1nnc(NC(=O)Cn2cnc3c2c(=O)n(C)c(=O)n3C)s1", "inhibition": "inactive: 4.35%"}, {"smiles": "O=P1(N(CCCl)CCCl)Nc2ccccc2N1", "inhibition": "inactive: 3.02%"}, {"smiles": "O=P1(N(CCCl)CCCl)OCCCN1CCCl", "note": "(configuration not stated)", "inhibition": "inactive: 6.11%"}, {"smiles": "COc1ccc(CNC(=O)CCNC(=O)N2CCn3c2nc2ccccc23)cc1", "inhibition": "inactive: 0.4%"}, {"smiles": "Cc1cc2ncn(C3CC(=O)N(C)C3=O)c2cc1C", "note": "(configuration not stated)", "inhibition": "inactive: -6.7%"}, {"smiles": "CC(O)CNc1nc2ccccc2n1CC(=O)N1CCN(Cc2ccccc2)CC1", "note": "(configuration not stated)", "inhibition": "inactive: 4.27%"}, {"smiles": "CCCCNc1nc2ccccc2n1CC(=O)Nc1c(C)cccc1CC", "inhibition": "inactive: -10.4%"}, {"smiles": "COc1cccc(NC(=O)[C@@H](NC(=O)N2CCn3c2nc2ccccc23)C(C)C)c1", "inhibition": "inactive: 2.29%"}, {"smiles": "COc1cc(I)ccc1[As](=O)(O)O", "inhibition": "inactive: -9.08%"}, {"smiles": "c1ccc(CN2CCC(Nc3nc(-c4ccccc4)nc4ccccc34)CC2)cc1", "inhibition": "inactive: -12.1%"}, {"smiles": "Cc1ccc(/C=N/NC(=O)Cn2cnc3ccccc32)o1", "inhibition": "inactive: -21.9%"}, {"smiles": "Cn1c(=O)[nH]c(=O)c2c1nc(N1CCCCCC1)n2CCN1CCCCCC1", "inhibition": "inactive: 10.6%"}, {"smiles": "CC(C)N(C(=O)Cn1c(-c2ccccc2Cl)nc2ccccc21)c1ccccc1", "inhibition": "inactive: -0.82%"}, {"smiles": "CCOC(=O)c1cccc(NC(=O)Cn2c(CC(=O)NC)nc3ccccc32)c1", "inhibition": "inactive: 10.3%"}, {"smiles": "CSCC[C@H](NC(=O)N1CCn2c1nc1ccccc12)C(=O)NCc1ccccc1", "inhibition": "inactive: -5.13%"}, {"smiles": "C(=N\\c1nc2ccccc2n1CCN1CCCCC1)/c1cccs1", "inhibition": "inactive: -9.5%"}, {"smiles": "Cc1ccc(NC(=O)Cn2cnc3c(OCc4ccccc4)ncnc32)cc1C", "inhibition": "inactive: 5.21%"}, {"smiles": "Cn1c(=O)[nH]c(=O)c2c1nc(CN1CCN(c3ccc(F)cc3)CC1)n2CCN1CCOCC1", "inhibition": "inactive: 33.6%"}, {"smiles": "COc1ccc2nc(NP(=O)(c3ccccc3)c3ccccc3)sc2c1", "inhibition": "inactive: 8.62%"}, {"smiles": "CCCn1c(=O)[nH]c(=O)c2c1nc(-c1ccc3c(c1)OCCO3)n2CCN1CCOCC1", "inhibition": "inactive: -30.4%"}, {"smiles": "Cc1c2c(nc3ccccc13)SC(C(Cl)Cl)C2", "note": "(configuration not stated)", "inhibition": "inactive: 19.6%"}, {"smiles": "O=C(CCCCCNC(=O)N1CCn2c1nc1ccccc12)N[C@@H](C(=O)O)c1ccccc1", "inhibition": "inactive: 13.9%"}, {"smiles": "Cc1ccc(S(=O)(=O)N2CCCCC2)cc1NC(=O)Cn1cnc2c1c(=O)n(C)c(=O)n2C", "inhibition": "inactive: 12.8%"}, {"smiles": "NC(=O)CS(=O)(=O)c1nc2ccccc2n1CC(=O)N1CCCCC1", "inhibition": "inactive: -2.11%"}, {"smiles": "Cc1ccccc1Oc1ccc2c(c1)[C@@H]1C[C@H](N(C)C(=O)c3ccc(C#N)cc3)[C@H]([C@H](C)O)C(=O)N1CC2", "inhibition": "inactive: 12.1%"}, {"smiles": "NC(=O)CC(NC(=O)Cc1ccc(Br)cc1)c1ccc(NC2CCN(Cc3ccccc3)CC2)c([N+](=O)[O-])c1", "note": "(configuration not stated)", "inhibition": "inactive: -6.55%"}, {"smiles": "O=C(Cn1cnc2ccccc21)NC(c1ccccc1)c1ccccc1", "inhibition": "inactive: -17.5%"}, {"smiles": "CCn1cc(C(=O)N2CCn3c(nc4ccccc43)C2)c(=O)c2ccc(C)nc21", "inhibition": "inactive: -37.7%"}, {"smiles": "Cn1c(=O)c2c(nc(Cl)n2CC(=O)N2CCCCC2)n(C)c1=O", "inhibition": "inactive: -9.56%"}, {"smiles": "Cc1cc(=O)[nH]c(N[N+](=O)[O-])n1", "inhibition": "inactive: 5.67%"}, {"smiles": "c1ccc2c(c1)ncn2CCN1CCCCC1", "inhibition": "inactive: 9.48%"}, {"smiles": "Cn1c(=O)c2c(ncn2CC(=O)Nc2nccs2)n(C)c1=O", "inhibition": "inactive: -3.44%"}, {"smiles": "O=C(Cn1cnc2c(NCc3ccccc3)ncnc21)NCCCN1CCCC1=O", "inhibition": "inactive: 5.6%"}, {"smiles": "O=C(OC1CN2CCC1CC2)C12CC3CC(CC(C3)C1)C2", "note": "(configuration not stated)", "inhibition": "inactive: -10.3%"}, {"smiles": "O=C1C2CCCCC2C(=O)N1c1ccc(NC2CCN(Cc3ccccc3)CC2)c([N+](=O)[O-])c1", "note": "(configuration not stated)", "inhibition": "inactive: 1.22%"}, {"smiles": "CC(C)(C)NC(=O)Cn1c(SCC(=O)NC2CC2)nc2ccccc21", "inhibition": "inactive: -34.7%"}, {"smiles": "CSc1nc(N)nc2c1ncn2CC(=O)NCc1ccc2c(c1)OCO2", "inhibition": "inactive: -17.2%"}, {"smiles": "Cc1ccc(Cn2nnnc2CN2CCC(n3nnc4cc(C(F)(F)F)ccc43)CC2)cc1", "inhibition": "inactive: 5.91%"}, {"smiles": "Cc1ccc(-c2csc(NCCn3c(-c4ccncc4)nc4cc(C(F)(F)F)ccc43)n2)cc1", "inhibition": "inactive: -10%"}, {"smiles": "Nc1nonc1-c1nc2ccccc2n1CC(=O)NC1CCCC1", "inhibition": "inactive: -23.6%"}, {"smiles": "O=C(O)CCc1nn2c3ccccc3n(CCN3CCCCC3)c2nc1=O", "inhibition": "inactive: -19.9%"}, {"smiles": "Cc1cnc(NC(=O)Cn2cnc3c2c(=O)n(C)c(=O)n3C)s1", "inhibition": "inactive: -35.7%"}, {"smiles": "CCN(CC)c1ccc(CNc2nc3ccccc3n2CCN2CCOCC2)cc1", "inhibition": "inactive: 2.81%"}, {"smiles": "O=C(Cn1c(NCCO)nc2ccccc21)Nc1cccc(S(=O)(=O)N2CCCC2)c1", "inhibition": "inactive: -25.1%"}, {"smiles": "Cc1ccc(S(=O)(=O)Nc2ccc(Cl)cc2)cc1NC(=O)Cn1cnc2c1c(=O)n(C)c(=O)n2C", "inhibition": "inactive: -14%"}, {"smiles": "CC(C)NC(=O)CSc1nc2ccccc2n1CC(=O)N(C(C)C)C(C)C", "inhibition": "inactive: -33.9%"}, {"smiles": "Cc1ccc2c(c1)C1CN(C)CCC1N2C(=O)c1ccco1", "note": "(configuration not stated)", "inhibition": "inactive: 11.3%"}, {"smiles": "NC(=O)CC(NC(=O)c1cccc(Br)c1)c1ccc(NC2CCN(Cc3ccccc3)CC2)c([N+](=O)[O-])c1", "note": "(configuration not stated)", "inhibition": "inactive: -2.05%"}, {"smiles": "N=c1n(CCN2CCCCC2)c2ccccc2n1CC(O)c1ccc(Cl)c(Cl)c1", "note": "(configuration not stated)", "inhibition": "inactive: 9.72%"}, {"smiles": "COC(=O)[C@H](Cc1ccc(O)cc1)NC(=O)Cn1cnc2c(SC)nc(N)nc21", "inhibition": "inactive: -22%"}, {"smiles": "CC(C)[Si]1(C(C)C)OCC2OC(n3cnc4c(N)ncnc43)C(N)C2O[Si](C(C)C)(C(C)C)O1", "note": "(configuration not stated)", "inhibition": "inactive: -22.6%"}, {"smiles": "COc1cc(NC(=O)[C@@H](NC(=O)N2CCn3c2nc2ccccc23)C(C)C)cc(OC)c1", "inhibition": "inactive: 0.22%"}, {"smiles": "Nc1nonc1-c1nc2ccccc2n1CC(=O)N1CCN(c2ccc(F)cc2)CC1", "inhibition": "inactive: -22.7%"}, {"smiles": "CN(c1ccccc1)S(=O)(=O)c1cccc(NC(=O)Cn2cnc3c2c(=O)n(C)c(=O)n3C)c1", "inhibition": "inactive: 8.79%"}, {"smiles": "CN(C)CCn1c(=N)n(CC(O)c2ccc(Cl)c(Cl)c2)c2ccccc21", "note": "(configuration not stated)", "inhibition": "inactive: -16.6%"}, {"smiles": "Cc1ccc(CNC(=O)Cn2cnc3c(OCc4ccccc4)ncnc32)o1", "inhibition": "inactive: -2.46%"}, {"smiles": "O=[N+]([O-])c1cc(Oc2ccc([N+](=O)[O-])cc2C(F)(F)F)cc([N+](=O)[O-])c1", "inhibition": "inactive: 1.97%"}, {"smiles": "COc1cc(NC(=O)Cn2cnc3c(NCc4ccccc4)ncnc32)cc(OC)c1OC", "inhibition": "inactive: -7.11%"}, {"smiles": "Cc1cc2ncn(C3CC(=O)N(Cc4ccccc4)C3=O)c2cc1C", "note": "(configuration not stated)", "inhibition": "inactive: -2.46%"}, {"smiles": "c1ccc2c(c1)nc1n2CCN1CCNC1CCCCC1", "inhibition": "inactive: 18.8%"}, {"smiles": "O=C(Cn1cnc2c(OCc3ccccc3)ncnc21)NCc1ccccn1", "inhibition": "inactive: 4.42%"}, {"smiles": "Cn1c(=O)c2ncn(CC(=O)Nc3cccc(-c4nc5ccccc5s4)c3)c2n(C)c1=O", "inhibition": "inactive: 7.29%"}, {"smiles": "CCN(CC)S(=O)(=O)c1ccc(OC)c(NC(=O)Cn2cnc3c2c(=O)n(C)c(=O)n3C)c1", "inhibition": "inactive: -1.64%"}, {"smiles": "COc1ccc(N/C(=N/P(=O)(N2CCOCC2)N2CCOCC2)N2CCOCC2)cc1", "inhibition": "inactive: -2.01%"}, {"smiles": "CN(C)C(=O)Cn1c(SCC(=O)NCc2ccc3c(c2)OCO3)nc2ccccc21", "inhibition": "inactive: 10.7%"}, {"smiles": "Brc1ccc(CNc2nc3ccccc3n2CCN2CCCCC2)cc1", "inhibition": "inactive: 11%"}, {"smiles": "COc1ccc(/C=N/NC(=O)Cn2c(Cc3ccc(OC)c(OC)c3)nc3ccccc32)cc1", "inhibition": "inactive: 18.4%"}, {"smiles": "CC(Cc1ccc(O)cc1)NCC(O)c1cc(O)cc(O)c1", "note": "(configuration not stated)", "inhibition": "inactive: -1.79%"}, {"smiles": "Cc1ccc(OP(=O)(Nc2ccc([N+](=O)[O-])cn2)Oc2ccc(C)cc2)cc1", "inhibition": "inactive: -9.49%"}, {"smiles": "Fc1ccc2c(c1)nnn2C1CCN(Cc2ccccc2)CC1", "inhibition": "inactive: 5.32%"}, {"smiles": "COC(=O)[C@H](CCSC)NC(=O)Cn1cnc2c(NCc3ccccc3)ncnc21", "inhibition": "inactive: 0.95%"}, {"smiles": "Cn1c(=O)c2c(nc(N3CCOCC3)n2CCNC2=NCCC2)n(C)c1=O", "inhibition": "inactive: -0.99%"}, {"smiles": "COc1ccc(S(=O)(=O)N2CCCCC2)cc1NC(=O)Cn1cnc2c1c(=O)n(C)c(=O)n2C", "inhibition": "inactive: -6.9%"}, {"smiles": "O=C(Cn1c(C(F)(F)F)nc2ccccc21)N/N=C/c1ccco1", "inhibition": "inactive: 7.66%"}, {"smiles": "CCOC(=O)Cn1c(=O)c2c(nc3n2CCN3Cc2ccccc2)n(C)c1=O", "inhibition": "inactive: 11.1%"}, {"smiles": "CN(C)CCn1cnc2c1c(=O)n(C)c(=O)n2C", "inhibition": "inactive: 5.75%"}, {"smiles": "CSc1nc(N)nc2c1ncn2CC(=O)N[C@H](C)c1cccc2ccccc12", "inhibition": "inactive: -8.76%"}, {"smiles": "Cc1ccc2nc3c(c(C)c2c1)CC(C(Cl)Cl)S3", "note": "(configuration not stated)", "inhibition": "inactive: 15.5%"}, {"smiles": "COc1ccc(CCNC(=O)[C@H](CCSC)NC(=O)N2CCn3c2nc2ccccc23)cc1OC", "inhibition": "inactive: -18.8%"}, {"smiles": "N=c1n(CCCOc2ccc(Br)cc2)c2ccccc2n1CC(N)=O", "inhibition": "inactive: 1.96%"}, {"smiles": "Cc1ccc2c(c1)C1CN(C)CCC1N2S(=O)(=O)c1ccccc1F", "note": "(configuration not stated)", "inhibition": "inactive: 2.91%"}, {"smiles": "CC(C)CN(C(=O)Cn1c(Cl)nc2c1c(=O)n(C)c(=O)n2C)C1CCS(=O)(=O)C1", "note": "(configuration not stated)", "inhibition": "inactive: 2.9%"}, {"smiles": "COc1ccc(NC(=O)Cn2c(NCC(C)O)nc3ccccc32)cc1Cl", "note": "(configuration not stated)", "inhibition": "inactive: 16.1%"}, {"smiles": "O=C(Cn1c2[n+](c3ccc(C(F)(F)F)cc31)CCCCC2)Nc1ccc(Br)cc1", "inhibition": "inactive: 8.29%"}]}]}
